Experimental data: ChEMBL document CHEMBL6078716, “Advances in Psychedelic Therapeutics: Novel Prodrugs and Derivatives for Enhanced Mental Health Treatment” (ACS Med Chem Lett, 2024)
pKi: −log10 of the molar value.

Protein sequences, listed by entry. Tags and fused reporters are not part of them.
UniProt P41595, whole entry: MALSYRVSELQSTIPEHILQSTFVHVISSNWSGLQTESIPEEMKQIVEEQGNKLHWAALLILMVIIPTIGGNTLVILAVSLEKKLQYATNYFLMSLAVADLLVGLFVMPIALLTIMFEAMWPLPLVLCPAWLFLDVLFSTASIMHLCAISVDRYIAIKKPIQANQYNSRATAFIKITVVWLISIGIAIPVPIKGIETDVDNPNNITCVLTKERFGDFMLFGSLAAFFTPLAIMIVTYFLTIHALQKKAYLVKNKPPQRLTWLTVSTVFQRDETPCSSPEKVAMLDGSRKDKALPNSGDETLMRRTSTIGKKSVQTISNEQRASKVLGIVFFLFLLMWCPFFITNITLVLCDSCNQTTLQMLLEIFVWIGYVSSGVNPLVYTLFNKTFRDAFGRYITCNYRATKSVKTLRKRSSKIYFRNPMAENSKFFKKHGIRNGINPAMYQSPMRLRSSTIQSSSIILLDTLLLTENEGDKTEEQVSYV

Biological target: 5-hydroxytryptamine receptor 2B (Homo sapiens, UniProt P41595)
Assay: Binding affinity to 5-HT2B receptor (unknown origin) expressed in HEK293 cells assessed as inhibition constant
Format: cell-based

With `CN(C)CCc1c[nH]c2cccc(OP(=O)(O)O)c12` [PSILOCYBIN] the pKi was under 5.00.
